The molecules below were run against Mu-type opioid receptor (Homo sapiens, UniProt P35372). Conditions: not given.
Type: cell membranes, HEK293, Membrane

Chains of the proteins cited; added tags and fusions are not shown.
UniProt P35372, whole entry: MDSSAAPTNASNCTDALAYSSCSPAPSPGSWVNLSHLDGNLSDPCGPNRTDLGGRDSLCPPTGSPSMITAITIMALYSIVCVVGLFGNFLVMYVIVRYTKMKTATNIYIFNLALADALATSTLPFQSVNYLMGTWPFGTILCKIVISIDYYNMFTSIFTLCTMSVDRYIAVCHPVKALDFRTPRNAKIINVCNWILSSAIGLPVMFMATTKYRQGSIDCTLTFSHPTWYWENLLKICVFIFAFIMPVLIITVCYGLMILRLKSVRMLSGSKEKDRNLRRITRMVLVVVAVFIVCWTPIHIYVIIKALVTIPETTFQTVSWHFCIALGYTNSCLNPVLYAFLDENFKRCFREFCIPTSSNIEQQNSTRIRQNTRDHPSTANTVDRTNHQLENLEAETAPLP
UniProt P35462, whole entry: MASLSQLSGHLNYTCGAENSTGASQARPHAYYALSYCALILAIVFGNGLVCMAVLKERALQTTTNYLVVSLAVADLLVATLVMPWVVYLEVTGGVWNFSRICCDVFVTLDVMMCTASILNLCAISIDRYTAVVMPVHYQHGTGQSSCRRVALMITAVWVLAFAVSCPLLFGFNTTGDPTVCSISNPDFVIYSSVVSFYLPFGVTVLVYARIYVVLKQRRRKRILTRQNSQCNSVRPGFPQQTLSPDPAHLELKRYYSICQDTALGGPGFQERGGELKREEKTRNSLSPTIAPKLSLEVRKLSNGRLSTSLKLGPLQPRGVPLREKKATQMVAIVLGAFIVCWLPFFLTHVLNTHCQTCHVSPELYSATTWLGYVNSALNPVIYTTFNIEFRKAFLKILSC

| Compound | Ki [µM] |
| --- | --- |
| CN(C)CCC(C#N)(c1ccccc1)c1ccccc1 | 3.91 |
| CN(C)C(=O)C(CCNCCc1ccccc1)(c1ccccc1)c1ccccc1 | 0.0504 |
| CCc1cccc(N2CCN(CC(O)CCNCCC(C(=O)N(C)C)(c3ccccc3)c3ccccc3)CC2)c1Cl (stereo unspecified) | 0.33 |
| O=C(NCCCCN1CC[C@]2(c3cccc(O)c3)CCC[C@H]1[C@H]2O)c1cc2ccccc2[nH]1 | 0.464 |
| N#CC(CCNCCC(O)CN1CCN(c2cccc(Cl)c2Cl)CC1)(c1ccccc1)c1ccccc1 (stereo unspecified) | 0.0635 |
| CCc1cccc(N2CCN(CCCCNCCC(C(=O)N(C)C)(c3ccccc3)c3ccccc3)CC2)c1Cl | 0.264 |
| O=C(NCCCCN1CC[C@]2(c3cccc(O)c3)CCC[C@H]1[C@@H]2O)c1cc2ccccc2[nH]1 | 0.988 |
| CCOC(=O)/C=C1\[C@@H]2CCC[C@@]1(c1cccc(O)c1)CCN2CCN1CCN(c2cccc(Cl)c2Cl)CC1 | 0.0927 |
| COc1cccc(C(=CCNCCCCN2CCN(c3cccc(Cl)c3Cl)CC2)c2cccc(OC)c2)c1 | 10.1 |
| N#CC(CCNCCCCC(=O)N1CCN(c2cccc(Cl)c2Cl)CC1)(c1ccccc1)c1ccccc1 | 0.0608 |
| Oc1cccc([C@@]23CCC[C@@H]([C@H]2O)N(C/C=C/c2ccccc2)CC3)c1 | 0.000377 |
| CCc1cc(Cl)c(OC)c(C(=O)NCC2CCCN2CC(=O)N2CCC(c3ccccc3)(c3ccccc3)C2)c1O (stereo unspecified) | 14.2 |
| N#CC(CCN1CCN(c2cccc(Cl)c2Cl)CC1)(c1ccccc1)c1ccccc1 | 0.266 |
| CCc1cc(Cl)c(OC)c(C(=O)NC[C@@H]2C[C@@H](OCCCCNCCC(C(=O)N(C)C)(c3ccccc3)c3ccccc3)CN2)c1O | 0.559 |
| CCOC(=O)/C=C1\[C@@H]2CCC[C@@]1(c1cccc(O)c1)CCN2CC1CC1CCNC(=O)c1cc2ccccc2[nH]1 (stereo partly specified) | 0.0197 |
| CCc1cccc(N2CCN(CCC(c3cccc(O)c3)c3cccc(O)c3)CC2)c1Cl | 0.327 |
| CCc1cccc(N2CCN(CCC(c3cccc(O)c3)c3cccc(OC)c3)CC2)c1Cl (stereo unspecified) | 0.238 |

| Compound | Ki [µM] |
| --- | --- |
| CN(C)C(=O)C(CCN1CCc2ccc(C#N)cc2C1)(c1ccccc1)c1ccccc1 | 0.0182 |
| CCOC(=O)/C=C1\[C@@H]2CCC[C@@]1(c1cccc(O)c1)CCN2 | 0.474 |
| Oc1cccc(C(CCNCCCCN2CCN(c3ccccc3)CC2)c2cccc(O)c2)c1 | 0.213 |
| CN(C)C(=O)C(CCNCCC(O)CN1CCN(c2cccc(Cl)c2Cl)CC1)(c1ccccc1)c1ccccc1 (stereo unspecified) | 0.0588 |
| CCc1cccc(N2CCN(CCC(C(=O)N(C)C)(c3ccccc3)c3ccccc3)CC2)c1Cl | 0.000842 |
| CN(C)C(=O)C(CCNCCCCN1CCc2ccc(C#N)cc2C1)(c1ccccc1)c1ccccc1 | 0.15 |
| N#CC(CCNCCc1ccccc1)(c1ccccc1)c1ccccc1 | 1.17 |
| Oc1cccc([C@]23CCC[C@H](NCC2)[C@H]3O)c1 | 0.172 |
| CN1CCC(c2ccccc2)(c2ccccc2)C1 | 8.5 |
| CCc1cc(Cl)c(OC)c(C(=O)NC[C@@H]2CCCN2CCC(C#N)(c2ccccc2)c2ccccc2)c1O | 11.1 |
| Oc1cccc([C@]23CCC[C@H](NCC2)[C@@H]3O)c1 | 3.2 |
| CCc1cccc(N2CCN(CCC(c3cccc(OC)c3)c3cccc(OC)c3)CC2)c1Cl | 3.88 |
| CN(C)CCC(C(=O)NCCCCN1CCN(c2cccc(Cl)c2Cl)CC1)(c1ccccc1)c1ccccc1 | 1.47 |
| CN(C)CCC(C(=O)N(C)C)(c1ccccc1)c1ccccc1 | 0.649 |
| CCC(=O)N1CCC(c2ccccc2)(c2ccccc2)C1 | 15 |
| CCOC(=O)/C=C1\[C@@H]2CCC[C@@]1(c1cccc(O)c1)CCN2C[C@H]1C[C@@H]1CCNC(=O)c1cc2ccccc2[nH]1 (relative stereo) | 0.0135 |
| CCOC(=O)/C=C1\[C@@H]2CCC[C@@]1(c1cccc(O)c1)CCN2C[C@@H]1C[C@H]1CCNC(=O)c1cc2ccccc2[nH]1 (relative stereo) | 0.0562 |

Same assay, conditions: hek293

| Compound | Ki [µM] |
| --- | --- |
| CCOC(=O)/C=C1\[C@@H]2CCC[C@@]1(c1cccc(O)c1)CCN2CCCCNC(=O)c1cc2ccccc2[nH]1 | 0.0572 |

What follows are molecules tested against D(3) dopamine receptor (Homo sapiens, UniProt P35462) (assay: Displacement of [3H]-N-methylspiperone from human dopamine D3 receptor expressed in HEK293 cell membranes incubated for 60 mins by microbeta scintillation counting analysis). Conditions: not given.
Set-up: species or system Membrane

| Compound | Ki [µM] |
| --- | --- |
| CCc1cccc(N2CCN(CCC(c3cccc(O)c3)c3cccc(OC)c3)CC2)c1Cl (stereo unspecified) | 0.235 |

— ChEMBL document CHEMBL5046218, “Novel Dual-Target μ-Opioid Receptor and Dopamine D3 Receptor Ligands as Potential Nonaddictive Pharmacotherapeutics for Pain Management” (J Med Chem, 2021)
